Consider 1 compound from patent US7098039B1, “Analysis of a sample to determine its characteristic cycle time” (The Victoria University of Manchester, priority 1998, dated 2006).

The experiment concerns peptide sequence VCDWWGWGIC (mimic of the binding of drugs by the drug efflux protein P-glycoprotein). Briefly: Quenching of the natural tryptophan fluorescence of peptide VCDWWGWGIC on drug binding (FIG. 7h titration). The note with it: linear sequence or cyclised, result in words. The source says: The system illustrated in FIG. 7 may be a drug binding to a protein or peptide comprising fluorescent amino acids at the site of binding.
The number in brackets, following each titration, is the relative intensity of the peak at 359.25 nm, indicating the degree of quenching.

`COc1cc2c(c(OC)c1OC)-c1ccc(OC)c(=O)cc1[C@@H](NC(C)=O)CC2` [Colchicine]: the “natural tryptophan fluorescence of the peptide quenched by the drug” value is given as “quenched”.
